Target: VHL-elongin B-elongin C (VBC) complex, wild type, P40337;Q15370;Q15369
Assay: biolayer interferometry (BLI)
Details: read off a plot

koff (parent: est. 0.0044 s-1)	koff (parent: est. 0.0047)	kon (parent: est. 26000 M-1 s-1)	kon (parent: est. 40000 M-1 s-1)	Substance
0.0049 s⁻¹	0.0051 s⁻¹	30000 M⁻¹ s⁻¹		hydroxylated HIF1α peptide (556–573), biotinylated D570delinsGE
			33000 M⁻¹ s⁻¹	hydroxylated HIF2α peptide (523–541), biotinylated G537del

Reference: publication PMC6650433, “Evolution of metazoan oxygen-sensing involved a conserved divergence of VHL affinity for HIF1α and HIF2α” (Nature Communications, 2019)
